Here are results for one compound from ChEMBL document CHEMBL3108672, “Structure-activity relationship of adenosine 5'-diphosphoribose at the transient receptor potential melastatin 2 (TRPM2) channel: rational design of antagonists” (J Med Chem, 2013).

Amino acid sequences for entries named in this document (tags omitted).
UniProt O94759, whole entry: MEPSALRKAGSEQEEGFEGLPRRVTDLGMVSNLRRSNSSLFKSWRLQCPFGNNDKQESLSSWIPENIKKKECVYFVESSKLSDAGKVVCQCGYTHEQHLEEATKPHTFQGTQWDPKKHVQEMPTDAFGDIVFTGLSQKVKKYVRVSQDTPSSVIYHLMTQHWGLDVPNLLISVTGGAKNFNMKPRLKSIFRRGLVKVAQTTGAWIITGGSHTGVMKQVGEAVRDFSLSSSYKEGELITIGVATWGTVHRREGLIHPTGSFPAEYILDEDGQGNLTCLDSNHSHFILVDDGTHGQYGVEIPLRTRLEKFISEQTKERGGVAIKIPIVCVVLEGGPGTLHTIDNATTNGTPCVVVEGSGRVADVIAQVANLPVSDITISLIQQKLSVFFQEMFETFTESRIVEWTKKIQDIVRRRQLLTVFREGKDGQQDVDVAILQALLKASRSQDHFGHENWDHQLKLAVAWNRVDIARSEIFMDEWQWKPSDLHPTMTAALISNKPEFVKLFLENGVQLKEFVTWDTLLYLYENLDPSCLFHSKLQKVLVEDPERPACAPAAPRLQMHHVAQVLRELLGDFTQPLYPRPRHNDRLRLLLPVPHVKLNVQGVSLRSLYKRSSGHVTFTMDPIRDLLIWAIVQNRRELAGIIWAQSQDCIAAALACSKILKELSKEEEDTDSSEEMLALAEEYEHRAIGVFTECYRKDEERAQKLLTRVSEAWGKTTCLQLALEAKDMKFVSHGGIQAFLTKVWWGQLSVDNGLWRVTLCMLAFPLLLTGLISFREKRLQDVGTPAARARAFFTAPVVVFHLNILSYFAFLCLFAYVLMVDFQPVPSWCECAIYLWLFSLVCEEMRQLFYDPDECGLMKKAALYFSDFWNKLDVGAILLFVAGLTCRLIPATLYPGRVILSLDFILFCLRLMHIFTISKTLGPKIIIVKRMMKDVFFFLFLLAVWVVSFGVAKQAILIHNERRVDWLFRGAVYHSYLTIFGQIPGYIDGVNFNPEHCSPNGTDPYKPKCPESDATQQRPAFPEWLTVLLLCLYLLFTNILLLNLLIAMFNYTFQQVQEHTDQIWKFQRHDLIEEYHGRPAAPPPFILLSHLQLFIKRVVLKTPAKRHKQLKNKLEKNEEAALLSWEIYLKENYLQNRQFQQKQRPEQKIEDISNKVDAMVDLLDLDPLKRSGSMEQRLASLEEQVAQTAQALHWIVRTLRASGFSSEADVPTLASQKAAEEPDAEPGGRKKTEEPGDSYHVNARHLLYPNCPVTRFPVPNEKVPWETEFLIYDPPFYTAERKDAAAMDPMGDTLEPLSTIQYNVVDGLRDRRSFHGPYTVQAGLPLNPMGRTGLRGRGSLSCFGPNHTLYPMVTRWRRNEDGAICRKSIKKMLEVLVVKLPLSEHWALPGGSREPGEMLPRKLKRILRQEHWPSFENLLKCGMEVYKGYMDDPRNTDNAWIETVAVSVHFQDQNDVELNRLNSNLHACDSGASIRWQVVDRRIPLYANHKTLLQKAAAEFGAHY

In the assay the target is Transient receptor potential cation channel subfamily M member 2 (Homo sapiens, UniProt O94759).

Each structure is given as a SMILES string.

For the compound `NCCOB(c1ccccc1)c1ccccc1`, it took 1 µM to reach half-maximal inhibition (IC50).

A word on the IC50: it is the concentration at which inhibition is half-maximal. A lower IC50 goes with greater potency.
